Yeast mating assay 1: variants of the scFv Ab-14

The measurements come from Engelhart et al. 2022 (doi:10.1038/s41597-022-01779-4) through the FLAb antibody collection.

The target is the same throughout: PDVDLGDISGINAS, from the HR2 region of SARS-CoV-2 spike.

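Phage display of a naive human antibody library on the peptide gave the parent. AAYL50 was designed without a model: most single CDR substitutions and a random sample of double and triple ones. Affinity was read by AlphaSeq, a pooled yeast mating assay with surface-displayed partners. Mating (16 h, 30 °C) was followed by selection of diploids and sequencing of their barcodes. A regression on co-assayed BCL2-family reference pairs converts the normalised counts of each replicate to an apparent Kd. There are three technical replicates.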

Parent scFv Ab-14: VH joined to VL by three GGGGS repeats. Changes lie in the light chain CDRs alone.
VH: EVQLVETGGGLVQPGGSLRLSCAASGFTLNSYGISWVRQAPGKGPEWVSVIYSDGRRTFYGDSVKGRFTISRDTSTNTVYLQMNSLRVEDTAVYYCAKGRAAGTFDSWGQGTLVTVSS
VL: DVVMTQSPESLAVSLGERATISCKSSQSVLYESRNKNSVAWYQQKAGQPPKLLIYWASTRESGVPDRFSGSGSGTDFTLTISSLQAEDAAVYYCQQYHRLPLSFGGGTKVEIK

Variants are written as CDR1, CDR2 and CDR3 of the light chain (limits as in the source). Parent: KSSQSVLYESRNKNSVA, WASTRES, QQYHRLPLS.
Scale: log10 of Kd in nM, estimated from mating counts; low values are strong binders.
"n.d." marks a missing value. The strain was present, yet no cells mated with the target were sequenced in that replicate, which points to weak or no binding.
Empty control strains, which show no peptide, gave a signal in 18% of pairings with library AAYL50; the median was 4.19 and 95% of these signals were weaker than 2.99. No background was subtracted. The control count says in how many pairings with the empty strains this scFv gave a signal, with their mean in brackets.
For reference, the parent read 0.65 as the reference entry and 1.68 as a member of this library.

{"CDR-L1": "KSSQSVLYESDNKNSVA", "CDR-L2": "WAKTRES", "CDR-L3": "QQYHRLPAS", "log10 Kd (nM) by replicate": "n.d. n.d. n.d.", "signal with controls": "3/9 (4.83)"}
{"CDR-L1": "KSSQEVLYKSRNKNSVA", "CDR-L2": "WASTRES", "CDR-L3": "LQYHRLPLS", "log10 Kd (nM) by replicate": "n.d. n.d. n.d.", "signal with controls": "1/9 (2.78)"}
{"CDR-L1": "KSSQVVLYESRNKNSVA", "CDR-L2": "WASTRES", "CDR-L3": "IQYHRLPLS", "log10 Kd (nM) by replicate": "4.69 n.d. n.d.", "signal with controls": "2/9 (4.30)"}
{"CDR-L1": "KSSQIVLYESRNKWSWA", "CDR-L2": "WASTRES", "CDR-L3": "QQYHRLPLS", "log10 Kd (nM) by replicate": "n.d. n.d. n.d.", "signal with controls": "0/9"}
{"CDR-L1": "KSSQSVLAESRNKNSVA", "CDR-L2": "WASTREW", "CDR-L3": "QQYHLLPLS", "log10 Kd (nM) by replicate": "1.07 1.12 1.16", "signal with controls": "3/9 (4.78)"}
{"CDR-L1": "KSSQPVLYESRNKNNVS", "CDR-L2": "WASTRES", "CDR-L3": "QQYHRLPLS", "log10 Kd (nM) by replicate": "n.d. n.d. n.d.", "signal with controls": "3/9 (5.10)"}
{"CDR-L1": "KSSQSVLYESRQKNSVA", "CDR-L2": "WASTRHS", "CDR-L3": "TQYHRLPLS", "log10 Kd (nM) by replicate": "n.d. n.d. 3.57", "signal with controls": "3/9 (4.03)"}
{"CDR-L1": "KSSQSVLYEDRNKNSVA", "CDR-L2": "RASTREY", "CDR-L3": "QQYHRLPLS", "log10 Kd (nM) by replicate": "0.41 0.65 0.57", "signal with controls": "8/9 (5.04)"}
{"CDR-L1": "KSSQSVLYASRNKNTTA", "CDR-L2": "WASTRES", "CDR-L3": "QQYHRLPLS", "log10 Kd (nM) by replicate": "n.d. n.d. n.d.", "signal with controls": "1/9 (5.33)"}
{"CDR-L1": "KASQSVLYESRNKKSVA", "CDR-L2": "WASTREM", "CDR-L3": "QQYHRLPLS", "log10 Kd (nM) by replicate": "1.83 1.77 1.96", "signal with controls": "3/9 (4.57)"}
{"CDR-L1": "KSSQKVLYESRNKNSVA", "CDR-L2": "WASFRES", "CDR-L3": "QQYHRLPLS", "log10 Kd (nM) by replicate": "n.d. 3.86 n.d.", "signal with controls": "3/9 (4.40)"}
{"CDR-L1": "KSSQSVLYESRNKMSVN", "CDR-L2": "WASTRES", "CDR-L3": "KQYHRLPLS", "log10 Kd (nM) by replicate": "5.96 5.11 n.d.", "signal with controls": "4/9 (3.75)"}
{"CDR-L1": "KSSQSVLYESRNLNSVA", "CDR-L2": "KASTRES", "CDR-L3": "QQGHRLPLS", "log10 Kd (nM) by replicate": "0.72 1.18 0.93", "signal with controls": "3/9 (5.03)"}
{"CDR-L1": "KSSQSVLLESKNKNSVA", "CDR-L2": "WASTDES", "CDR-L3": "QQYHRLPLS", "log10 Kd (nM) by replicate": "3.86 n.d. 4.03", "signal with controls": "1/9 (3.10)"}
{"CDR-L1": "KSSQSVLYFSRNKNSVI", "CDR-L2": "WASTRES", "CDR-L3": "QQYHRLPLS", "log10 Kd (nM) by replicate": "n.d. n.d. n.d.", "signal with controls": "1/9 (3.05)"}
{"CDR-L1": "KSSQSVLYESRNKNAVA", "CDR-L2": "WALWRES", "CDR-L3": "QQYHRLPLS", "log10 Kd (nM) by replicate": "2.77 3.78 4.83", "signal with controls": "2/9 (5.03)"}
{"CDR-L1": "KSSQSVLYENRNKNSVA", "CDR-L2": "WASPRES", "CDR-L3": "QQYHYLPLS", "log10 Kd (nM) by replicate": "n.d. n.d. n.d.", "signal with controls": "0/9"}
{"CDR-L1": "KSSQSVEYESRNKNSVA", "CDR-L2": "WASTRES", "CDR-L3": "QQYHRLPLS", "log10 Kd (nM) by replicate": "0.56 0.74 0.71", "signal with controls": "1/9 (4.37)"}
{"CDR-L1": "KSTQSVGYESRNKNSVA", "CDR-L2": "WASTRES", "CDR-L3": "QQYWRLPLS", "log10 Kd (nM) by replicate": "0.72 0.83 0.98", "signal with controls": "1/9 (5.31)"}
{"CDR-L1": "KNSQSVLYESRNKNSVA", "CDR-L2": "WQSTRES", "CDR-L3": "QQQHRLPLS", "log10 Kd (nM) by replicate": "n.d. n.d. 3.72", "signal with controls": "2/9 (4.33)"}
{"CDR-L1": "KSSQSVLYEGINYNSVA", "CDR-L2": "WASTRES", "CDR-L3": "QQYHRLPLS", "log10 Kd (nM) by replicate": "0.61 0.84 0.63", "signal with controls": "2/9 (5.44)"}
{"CDR-L1": "KSSQSVLYESRNKNSVA", "CDR-L2": "WASTYES", "CDR-L3": "QQYHCLPRS", "log10 Kd (nM) by replicate": "n.d. n.d. n.d.", "signal with controls": "0/9"}

From the list, the first 2 with no signal in any replicate:

{"CDR-L1": "KSSQSVLYESDNKNSVA", "CDR-L2": "WAKTRES", "CDR-L3": "QQYHRLPAS", "log10 Kd (nM) by replicate": "n.d. n.d. n.d.", "signal with controls": "3/9 (4.83)"}
{"CDR-L1": "KSSQEVLYKSRNKNSVA", "CDR-L2": "WASTRES", "CDR-L3": "LQYHRLPLS", "log10 Kd (nM) by replicate": "n.d. n.d. n.d.", "signal with controls": "1/9 (2.78)"}